Target: human DNA polymerase-α (Homo sapiens, UniProt P09884)
Test: Primer/extension assay with human DNA polymerase-α (DNA template, DNA primer)
Format: biochemical
Text: The antiviral activity of the phosphonate nucleosides of the invention may be mostly explained by their intracellular metabolisation into their diphosphates (hereinafter referred as pp) followed by incorporation into the viral genome and chain termination. We used a primer/extension assay in order to compare the ability of the HIV reverse transcriptase and the human DNA polymerase-α to accept PMDTApp (see FIG. 15) as a substrate in comparison to deoxy-adenosine triphosphate (hereinafter referred as dATP). This will provide us with suitable information about the selectivity of the anti-HIV compound of the invention since the human DNA polymerase-α is mainly involved in replication of the nuclear genome while the HIV reverse transcriptase plays a key role in the replication of the viral genome.
The following incorporation study was effected with a DNA template and a DNA primer, as DNA polymerase-α and reverse transcriptase are both able to synthesize double stranded DNA (although reverse transcriptase is also able to synthesize a DNA strand using RNA as template). Both enzymes were able to extend a DNA primer with the phosphonate nucleotide, but the modified nucleotide was only a very poor substrate for the human DNA polymerase α.

Sequences of proteins named here, by UniProt entry; tags and fusion partners are left off.
UniProt P09884, whole entry: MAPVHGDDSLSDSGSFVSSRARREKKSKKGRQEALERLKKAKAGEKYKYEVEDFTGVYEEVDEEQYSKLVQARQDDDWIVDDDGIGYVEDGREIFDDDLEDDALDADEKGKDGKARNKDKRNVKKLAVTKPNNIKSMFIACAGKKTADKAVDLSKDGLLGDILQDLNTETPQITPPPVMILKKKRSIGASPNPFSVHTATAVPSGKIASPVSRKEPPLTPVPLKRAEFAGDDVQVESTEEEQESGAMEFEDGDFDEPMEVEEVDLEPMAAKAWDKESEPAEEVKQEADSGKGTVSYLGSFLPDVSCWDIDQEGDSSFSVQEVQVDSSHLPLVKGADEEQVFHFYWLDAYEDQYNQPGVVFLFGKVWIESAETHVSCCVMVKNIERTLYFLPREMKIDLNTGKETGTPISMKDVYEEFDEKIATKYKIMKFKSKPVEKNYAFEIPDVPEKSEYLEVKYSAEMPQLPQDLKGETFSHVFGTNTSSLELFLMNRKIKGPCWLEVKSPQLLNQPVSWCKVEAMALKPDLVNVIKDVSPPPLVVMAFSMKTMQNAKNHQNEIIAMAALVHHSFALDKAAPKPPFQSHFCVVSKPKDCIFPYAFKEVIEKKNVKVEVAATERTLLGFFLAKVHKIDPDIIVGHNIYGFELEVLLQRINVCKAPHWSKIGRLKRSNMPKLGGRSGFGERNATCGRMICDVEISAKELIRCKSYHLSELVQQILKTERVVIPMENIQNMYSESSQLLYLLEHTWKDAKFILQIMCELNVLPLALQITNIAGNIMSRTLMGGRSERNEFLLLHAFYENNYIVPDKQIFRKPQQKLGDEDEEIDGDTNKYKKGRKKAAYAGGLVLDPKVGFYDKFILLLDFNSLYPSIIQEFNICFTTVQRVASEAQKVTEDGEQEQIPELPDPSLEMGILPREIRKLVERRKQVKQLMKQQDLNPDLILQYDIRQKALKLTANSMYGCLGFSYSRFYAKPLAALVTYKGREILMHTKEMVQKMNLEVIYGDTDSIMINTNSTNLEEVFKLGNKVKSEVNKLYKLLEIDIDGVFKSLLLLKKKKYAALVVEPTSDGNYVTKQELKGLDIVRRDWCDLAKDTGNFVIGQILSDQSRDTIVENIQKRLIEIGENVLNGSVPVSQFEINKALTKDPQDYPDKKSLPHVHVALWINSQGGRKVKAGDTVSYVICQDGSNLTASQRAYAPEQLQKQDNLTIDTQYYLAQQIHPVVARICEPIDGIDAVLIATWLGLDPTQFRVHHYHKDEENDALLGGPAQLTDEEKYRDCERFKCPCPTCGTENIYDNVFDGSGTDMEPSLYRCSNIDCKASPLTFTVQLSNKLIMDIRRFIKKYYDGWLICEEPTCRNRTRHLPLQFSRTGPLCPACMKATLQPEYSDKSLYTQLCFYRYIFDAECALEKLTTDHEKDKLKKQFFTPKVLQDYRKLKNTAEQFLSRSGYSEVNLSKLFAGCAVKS

Nc1ncnc2c1ncn2C1CC(OCP(=O)(O)OP(=O)(O)OP(=O)(O)O)CO1 (stereo not drawn)
Substrate quality for human DNA polymerase α (extension of a DNA primer): very poor substrate
Enzyme concentration for incorporation relative to that used to incorporate natural dATP (human DNA polymerase α): more than 100 times
Enzyme concentration resulting in incorporation (human DNA polymerase α): 0.4 U/μL

Reference: patent US8076310B2, “Phosphonate nucleosides useful as active ingredients in pharmaceutical compositions for the treatment of viral infections, and intermediates for their production” (K.U.Leuven Research & Development, priority 2004, dated 2011)
